The values below are quoted from earlier work in US20240351965A1, “Synthesis and Evaluation of Novel (4-Hydroxyphenyl) Substituted Carbocycles as Potent and Selective Estrogen Receptor Beta Agonists” (Marquette University, priority 2021, published 2024).

In the series the test system is ovariectomized mouse model for menopause. The following applies: long-term oral dosing 0.5 mg/Kg; cited from earlier work.

As for `OC[C@H]1CC[C@H](c2ccc(O)cc2)CC1`, the drug-induced vasodilation entry was “mitigates drug-induced vasodilation” and the memory consolidation entry is “has shown efficacy for memory consolidation”.
